In one assay the target is T1, CREBBP (Homo sapiens, UniProt Q92793).
T1 construct: T7 phage strains displaying bromodomains were grown in parallel; purchased DiscoverX (BROMOscan / BromoKdMAX service); host or cells: T7 phage in E. coli host derived from BL21
The assay can be described thus: BROMOscan BromoKdMAX. The class given is binding. As for the experimental part:
(§1) A BromoKdMAX was performed at DiscoverX.
(§2) The assay principle is the following: BROMOscan™ is a novel industry leading platform for identifying small molecule bromodomain inhibitors. Based on proven KINOMEscan™ technology, BRO-MOscan™ employs a proprietary ligand binding site-directed competition assay to quantitatively measure interactions between test compounds and bromodomains.
(§3) The assay was conducted as follows: For the Bromodomain assays, T7 phage strains displaying bromodomains were grown in parallel in 24-well blocks in an E. coli host derived from the BL21 strain. E. coli were grown to log-phase and infected with T7 phage from a frozen stock (multiplicity of infection=0.4) and incubated with shaking at 32° C. until lysis (90-150 minutes). The lysates were centrifuged (5,000×g) and filtered (0.2 μm) to remove cell debris. […] The liganded beads were blocked with excess biotin and washed with blocking buffer (SeaBlock (Pierce), 1% BSA, 0.05% Tween 20, 1 mM DTT) to remove unbound ligand and to reduce non-specific phage binding. […] Test compounds were prepared as 1000× stocks in 100% DMSO. Kds were determined using an 11-point 3-fold compound dilution series with one DMSO control point. […] The compounds were then diluted directly into the assays such that the final concentration of DMSO was 0.09%. […] The bromodomain concentration in the eluates was measured by qPCR.

Sequences of proteins named here, by UniProt entry; tags and fusion partners are left off. Residues count along the entry.
UniProt Q92793, 1085-1192 limits assumed: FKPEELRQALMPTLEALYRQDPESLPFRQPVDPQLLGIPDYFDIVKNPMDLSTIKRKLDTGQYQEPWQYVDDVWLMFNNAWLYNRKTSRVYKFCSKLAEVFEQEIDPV
UniProt Q09472, 1049-1156 limits assumed: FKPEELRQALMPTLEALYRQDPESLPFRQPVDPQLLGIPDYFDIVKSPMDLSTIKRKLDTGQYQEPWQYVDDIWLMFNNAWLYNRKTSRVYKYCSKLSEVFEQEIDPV

The target of the next assay is T2, EP300 (Homo sapiens, UniProt Q09472).
T2 construct: T7 phage strains displaying bromodomains were grown in parallel; purchased DiscoverX (BROMOscan / BromoKdMAX service); host or cells: T7 phage in E. coli host derived from BL21
The assay can be described thus: BROMOscan BromoKdMAX. Format: binding. The method, then:
as §1, §2, §3

One may read the pKd as the negative decadic logarithm of the Kd, by convention in mol/L. Higher therefore signals a low Kd.

Each structure is given as a SMILES string. pKd: −log10 of the molar value.

As to `CO[C@H]1CC[C@H](n2c([C@@H]3CCCC(=O)N3c3ccc(F)c(F)c3)nc3cc(-c4c(C)noc4C)ccc32)CC1` [CCS1477], the negative logarithm of the Kd (pKd) at CREBBP was 9.33; at EP300, 9.59.

Source of the values: patent US20230255966A1, “A COMBINATION OF A CBP/P300 BROMODOMAIN INHIBITOR AND AN EGFR INHIBITOR FOR USE IN TREATING EGFR-MUTANT NSCLC” (TOLREMO THERAPEUTICS AG, priority 2020, published 2023).
